An excerpt weighted towards active compounds, which were near 0.92% of everything screened.
RXFP1 antagonist = antagonists of human relaxin receptor RXFP1; Q9HBX9; HEK293-RXFP1, relaxin-stimulated cAMP HTRF, 30 min; hits give low values; activity change, negative = inhibition, % at 57.5 µM; 350,000 tested, 0.59% active;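 active = activity change of -60% or lower, but not beyond a set lower limit; inconclusive = change between -60% and -40%, or beyond the set limit; inactive = change above -40%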; note: % is set by controls: 0 for no effect and ±100 for the full control effect
GALK inh = galactokinase (human) inhibition. Potency, µM (series often up to 57.5 µM), inactives show top-dose activity change, negative = inhibition, most hits filed as inhibitors. 270,000 tested, 0.007% active. Purified GALK, Kinase-Glo residual ATP luminescence; note: potency is the fitted concentration of half-maximal effect; % is set by controls: 0 for no effect and ±100 for the full control effect
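Quantitative HTS: GALK 5 nM, ATP 35 uM, galactose 100 uM, 1 h room temperature, then luciferase-based ATP detection.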
miR-21 FLuc = miR-21 reporter, rising signal; HeLa miR-21 FLuc reporter, luciferase, 48 h; Potency, µM (titrated, usually from 38.3 µM), without a hit: top-dose reporter change, positive = more light; AID 2288; 340,000 tested, under 10 active; active = well fitted rising curve with a large enough effect; inconclusive = small, poorly fitted or top-dose-only effect; inactive = no such curve, though single readings can be large or run the other way;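 further: % of control where 0% means no effect; miR-21 action dims this reporter so a rising signal means less miR-21 action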
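Using DMEM plus 10% FBS, HeLa miR-21-FLuc cells are incubated with test compounds (final up to about 40uM) for 48 hours; firefly luciferase signal is then imaged following reagent-mediated lysis.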
PKM2 act = increases activity of human pyruvate kinase M2; purified PKM2, Kinase-Glo ATP luminescence, activation; response scale: 0% is enzyme alone, no compound; Potency, µM (top dose mostly 57.5 µM), inactives show top-dose activation, actives largely listed as activators; 260,000 tested, 0.34% active; note: potency is the fitted concentration of half-maximal effect; % is set by controls: 0 for no effect and ±100 for the full control effect; nearly all actives have a fitted effect of over 55% in size
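ATP formation by purified human PK-M2, quantified via coupled luciferase luminescence after 1 h at room temperature with 0.1 mM ADP and 0.5 mM PEP final.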
RXFP1 agonist = agonists of human relaxin receptor RXFP1. 370,000 tested, 0.3% active. Potency, µM (top dose mostly 57.5 µM), for inactives: at the highest dose activation, actives largely listed as activators. AID 2676. HEK293T-RXFP1 cAMP TR-FRET, 30 min; response scale: percent of porcine relaxin response, buffer zero; note: potency is the fitted concentration of half-maximal effect; % is set by controls: 0 for no effect and ±100 for the full control effect; nearly all actives have a fitted effect of over 60% in size
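cAMP rise read by TR-FRET after 30 min, 37C compound exposure (up to 58 uM) in RXFP1-transfected HEK293 cells with Ro 20174 present. EC50 from Hill-equation fits, with 29 nM porcine relaxin as 100% and buffer as basal.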
Luc counter = Kinase-Glo luciferase inhibition (counter-screen); Potency, µM (series often up to 38.3 µM), for inactives: at the highest dose activity change, negative = inhibition, hits mostly inhibitors; 200,000 tested, 0.28% active; Kinase-Glo luciferase, ATP luminescence, 8 min; Q27757; note: potency is the fitted concentration of half-maximal effect; % is set by controls: 0 for no effect and ±100 for the full control effect; nearly all actives have a fitted effect of over 60% in size
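Substrate mix (final 50 mM imidazole pH 7.2, 50 mM KCl, 7 mM MgCl2, 10 uM ATP, 0.01% Tween 20, 0.05% BSA) plus pin-tool compound, then Kinase-Glo detection mix; 8 min ambient, luminescence read.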
The depositor's hits bear a star; u = inconclusive; x = no result; [ ] = another dose, or the depositor's remark. Unless noted, calls come from the whole dose curve; as a rule, active = well fitted curve in the direction sought with a large enough effect; inconclusive = small, poorly fitted or top-dose-only effect, or another doubt; inactive = no such curve, though single readings can be large; an effect the other way counts as inactive or inconclusive.

no. | Structure | RXFP1 antagonist | GALK inh | miR-21 FLuc
1 | Cc1ccc(CNC(=O)c2coc(=O)c3ccccc23)o1 | -2 | 1% | 6%
2 | CCn1cc(C(=O)NCc2ccc(C)o2)c2cc(OC)c(OC)cc2c1=O | -3 | 1% | -3%
3 | CCn1cc(C(=O)NCC(=O)OC)c2cc(OC)c(OC)cc2c1=O | 10 | 2% | -14%
4 | CCCCNC(=O)c1ccc(Cc2nc3ccccc3[nH]2)cc1 | x | x | x
5 | O=C(c1ccc(F)cc1F)N1CCN(c2n[nH]c(=O)[nH]c2=O)CC1 | 19 | 5% | 0%
6 | CCCCCCCCCCCCCCCCCCN(C)C | 22 | x | x
7 | CCOc1ccc(OCCn2c(=S)[nH]c3ccccc32)cc1 | -63* | -4% | 5%
8 | CSc1nc(N)nc(SCC(=O)C(C)(C)C)c1C#N | -10 | 3% | -58%

no. | PKM2 act | RXFP1 agonist | Luc counter
1 | 13µM* | 1% | 1%
2 | 14µM* | -3% | -2%
3 | -3% | 0% | -2%
4 | x | x | 1%
5 | -5% | 1% | -2%
6 | x | x | x
7 | 0% | 2% | x
8 | 1% | 3% | 3%

(further entries)
no. | Structure | RXFP1 antagonist | GALK inh | miR-21 FLuc
9 | CSc1nc(N)nc(SCC(=O)Nc2cccc(F)c2)c1C#N | -6 | -2% | 3%
10 | CSc1nc(N)nc(SCC(=O)Nc2ccc(Cl)cc2)c1C#N | -6 | -3% | 9%
11 | CSc1nc(N)nc(SCC(=O)CC(=O)OC(C)C)c1C#N | -4 | -1% | -5%
12 | CC(C)Cc1ccc(C(C)C(=O)OCc2ccccn2)cc1 (stereo not drawn) | -32 | x | x
13 | COc1ccc2c3c(ccc2c1)N[C@H](C(=O)O)CC3 | x | x | x
14 | O/N=C1\CC/C(=N\O)c2nn(-c3ccccc3Cl)nc21 | 10 | 1% | -2%
15 | Cc1ccc(-n2nc3c(n2)/C(=N/O)CC/C3=N\O)cc1 | -9 | 2% | -56%
16 | Cc1ccc(-n2nc(-c3ccco3)cc2C(=O)O)c(C)c1 | -12 | 11% | -1%

no. | PKM2 act | RXFP1 agonist | Luc counter
9 | 1.4µM* | 16% | 2%
10 | 4µM* | -2% | -3%
11 | 6% | 1% | 2%
12 | x | x | x
13 | x | x | -8%[7.66 µM]
14 | 0% | -1% | -1%
15 | -37% | 3% | 13µM*
16 | 28µM* | 3% | -1%

Compound profiles, from the list above. Screens in order: RXFP1 antagonist	GALK inh	miR-21 FLuc	PKM2 act	RXFP1 agonist	Luc counter
Profile of `CSc1nc(N)nc(SCC(=O)C(C)(C)C)c1C#N` : -10	3%	-58%	1%	3%	3%
Profile of `CCCCNC(=O)c1ccc(Cc2nc3ccccc3[nH]2)cc1` : x	x	x	x	x	1%
Profile of `Cc1ccc(-n2nc3c(n2)/C(=N/O)CC/C3=N\O)cc1` : -9	2%	-56%	-37%	3%	13µM*
Profile of `CSc1nc(N)nc(SCC(=O)Nc2cccc(F)c2)c1C#N` : -6	-2%	3%	1.4µM*	16%	2%
Profile of `O/N=C1\CC/C(=N\O)c2nn(-c3ccccc3Cl)nc21` : 10	1%	-2%	0%	-1%	-1%

Remaining list, next part.
no. | Structure | RXFP1 antagonist | GALK inh | miR-21 FLuc
17 | Cc1cc(-c2ccc(S(=O)(=O)Nc3cc(Cl)ccc3C)s2)on1 | 2 | x | 22%
18 | O=C(NCCN1CCCC1)c1ccc(-n2c(=O)c(=O)[nH]c3ccccc32)cc1 | x | x | x
19 | CSc1ccc(CN2CCC(CO)(Cc3ccc(Cl)cc3)CC2)cc1 | -81* | 4% | 1%
20 | CC(O)CNCCCOc1ccc(Cl)cc1C(C)(C)C (stereo not drawn) | -61* | 1% | 19%
21 | Cc1oc(=O)oc1CN1CCN(c2cc3c(cc2F)c(=O)c(C(=O)O)c2n3C(C)S2)CC1 (stereo not drawn) | -16 | x | x
22 | COC(=O)[C@]1(C)CCC[C@@]2(C)C3CC[C@@]4(C)C[C@]3(CCC21)CC(=O)N4 (stereo partly drawn) | x | x | x
23 | C=C1C(=O)C23CCC4C(C)(C(=O)OC)CCCC4(C)C2CCC1(O)C3 (stereo not drawn) | -92* | x | x
24 | Cc1cc(OCc2ccccc2)ccc1/C(O)=C1/C(=O)C(=O)N(Cc2cccnc2)C1c1ccncc1 (stereo not drawn) | 24 | 0% | 2%

no. | PKM2 act | RXFP1 agonist | Luc counter
17 | x | 2% | x
18 | x | x | -3%
19 | 0% | -1% | -2%
20 | -4% | -1% | 0%
21 | x | x | x
22 | x | 0% | x
23 | x | x | x
24 | -4% | 25µM* | x

Remaining list, next part
no. | Structure | RXFP1 antagonist | GALK inh | miR-21 FLuc
25 | COc1ccc(/C(O)=C2/C(=O)C(=O)N(Cc3cccnc3)C2c2ccncc2)cc1F (stereo not drawn) | 10 | -6% | -1%
26 | CN1C(=O)/C(=C\C(=O)c2cccs2)c2ccccc21 | -98* | 0% | u
27 | O=C(Nc1ccccc1)C(c1ccccc1)C1CCCC1 (stereo not drawn) | -70* | x | 7%
28 | O=c1nc2ccccn2c2ccc(S(=O)(=O)N3CCCCC3)cc12 | 23 | -3% | 0%
29 | O=C(CN1CCCc2ccccc21)N/N=C/c1c(O)ccc2ccccc12 | -61* | 0% | 0%
30 | O=C(CN1CCCc2ccccc21)N/N=C/c1ccccc1 | 4 | -3% | -33%
31 | CN1CCN(c2ccc3nc(-c4ccc5nc(-c6ccc(O)cc6)[nH]c5c4)[nH]c3c2)CC1 | x | x | x
32 | Cc1cc(/C=N/n2cnnc2)c(C)n1-c1ccc(OCc2ccc(Cl)cc2Cl)cc1 | -21 | 1% | 30%

no. | PKM2 act | RXFP1 agonist | Luc counter
25 | 2% | 6% | 0%
26 | 1% | 2% | 0%
27 | -1% | -2% | 1%
28 | 5% | 20µM* | x
29 | 13% | 0% | 5%
30 | 1% | -1% | 0%
31 | x | x | -4%[7.66 µM]
32 | -2% | 0% | 17%

(more compounds)
no. | Structure | RXFP1 antagonist | GALK inh | miR-21 FLuc
33 | Cc1cc(/C=N/n2cnnc2)c(C)n1-c1ccc(OCc2ccc(F)cc2)cc1 | -68* | -4% | 9%
34 | CC(=O)N1CCc2ccc(S(=O)(=O)Nc3ccccc3Cl)cc21 | 3 | 1% | -11%
35 | O=C(N/N=C/c1ccccc1Cl)c1n[nH]c2c1CCCC2 | -1 | 1% | -59%
36 | COc1ccc(CN(CC(=O)NCCC(C)C)C(=O)CCC(=O)Nc2nccs2)cc1 | -69* | 6% | 1%
37 | Fc1ccc(CNC(=S)Nc2cccc(C(F)(F)F)c2)cc1 | -12 | x | u
38 | Fc1ccc(Nc2nc3nonc3nc2Nc2cccc(C(F)(F)F)c2)cc1 | -74* | x | u
39 | CCCCC/C=C\C/C=C\C/C=C\C=C\C(O)CCCC(=O)O (stereo not drawn) | x | x | x
40 | O=C(NCCCN1CCOCC1)c1ccc(-n2c(=O)c(=O)[nH]c3ccccc32)cc1 | x | x | x

no. | PKM2 act | RXFP1 agonist | Luc counter
33 | 2% | 0% | -1%
34 | 13µM* | 19% | 1%
35 | -15% | 0% | 3.2µM*
36 | -11% | -4% | x
37 | -21% | -1% | 2%
38 | x | 0% | x
39 | x | x | -1%
40 | x | x | -2%

(next part)
no. | Structure | RXFP1 antagonist | GALK inh | miR-21 FLuc
41 | N=C(N)S[C@H]1c2ccccc2-c2cc([N+](=O)[O-])ccc21 | x | x | x
42 | CCCn1c(NCc2cccc(OC)c2O)nc2ccccc21 | 2 | -2% | -37%
43 | CCCn1c(NCc2cccc(OC)c2OC)nc2ccccc21 | -3 | 0% | -31%
44 | CCCn1c(COc2ccccc2OC)nc2ccccc21 | -2 | -8% | -26%
45 | C=CCc1cccc(CNc2nc3ccccc3n2C)c1O | 6 | 0% | -12%
46 | CCN(CC)C(=O)C1CN2CCc3cc(OC)c(OC)cc3C2CC1OC(C)=O (stereo not drawn) | -4 | x | x
47 | CCC(O)(CC)C(=O)N(Nc1ccc(C)cc1)c1ccc(C)cc1 | 3 | -3% | 1%
48 | CCOC(=O)C(=O)N(Nc1ccc(C)cc1)c1ccc(C)cc1 | -68* | -1% | -73%
49 | O=C(NCc1ccccc1)C12CC3CC(CC(Cl)(C3)C1)C2 | 8 | -4% | 0%

no. | PKM2 act | RXFP1 agonist | Luc counter
41 | x | x | 0%[7.66 µM]
42 | 25µM* | 1% | 1%
43 | 3% | 0% | 0%
44 | 16µM* | 1% | x
45 | 32µM* | 0% | x
46 | x | x | x
47 | x | 3% | x
48 | -1% | 4% | x
49 | -2% | 1% | x
